According to US4710564A, “Anthracycline compounds” (Microbial Chemistry Research Foundation, priority 1985, dated 1987):

What was measured:
[1] = system: sensitive P 388 leukemia cells (P 388/S); experiment: cells; assay type: cell-based; settings: for IC50: Mus musculus, P388, 48 h, read-out: IC50 P388/S
heart = settings: hamster, in vivo

Compound | IC50 [1] | toxicity to the heart at dosage level where antitumor activity starts (heart) | IC50 P388/S [1]
COc1cccc2c1C(=O)c1c(O)c3c(c(O)c1C2=O)C[C@@](O)(C(=O)CO)C[C@@H]3O[C@H]1C[C@H](N)[C@H](O)[C@H](C)O1 [Adriamycin, reference compound] | 0.012 µg/mL (≈ 0.0221 µM) | toxic to the heart | 
CCC1(O)Cc2c(O)c3c(c(O)c2C(OC2CC(N4CCOCC4)C(O)C(C)O2)C1)C(=O)c1c(O)cccc1C3=O (stereo not drawn) [3'-deamino-3'-(4-morpholinyl)-R20X] | 0.033 µg/mL (≈ 0.0579 µM) |  | 
CCC1(O)Cc2cc3c(c(O)c2C(OC2CC(N4CCOCC4)C(O)C(C)O2)C1)C(=O)c1c(O)cccc1C3=O (stereo not drawn) [3'-deamino-3'-(4-morpholinyl)-R20Y5] | 0.1 µg/mL (≈ 0.181 µM) |  | 
CCC1(O)CC(OC2CC(N3CCOCC3)C(O)C(C)O2)c2c(O)c3c(c(O)c2C1O)C(=O)c1cccc(O)c1C3=O (stereo not drawn) [3'-deamino-3'-(4-morpholinyl)-R20X2] | 0.009 µg/mL (≈ 0.0154 µM) |  | 
CC[C@@]1(O)C[C@H](O[C@H]2C[C@H](N(C)C)[C@H](O[C@H]3C[C@H](O)[C@H](O[C@H]4CCC(=O)[C@H](C)O4)[C@H](C)O3)[C@H](C)O2)c2c(cc3c(c2O)C(=O)c2c(O)cccc2C3=O)[C@H]1C(=O)OC [Aclacinomycin, reference compound] |  |  | 0.013 µg/mL (≈ 0.016 µM)

≈ marks a conversion by molar mass, not a printed value.
